Consider 1 compound from US7838527B2, “Methods of treating cancer and related methods” (Novartis Vaccines and Diagnostics, Inc., priority 2002, dated 2010).

The test system of this test is PC3 (prostate cancer). The test can be described thus: cells. Conditions: Homo sapiens, 72 h.

One may read the EC50 as the concentration at which the effect is half-maximal. Lower therefore signals a more potent agent. Turning to `CN1CCN(c2ccc3nc(-c4c(N)c5c(F)cccc5[nH]c4=O)[nH]c3c2)CC1` [Compound 1], the EC50 fell in the range of 1 to 10 µM.
